Measured affinities in a library of Ab-14 heavy chain variants

Source: Li et al. 2023 (doi:10.1038/s41467-023-39022-2), MIT Lincoln Laboratory and A-Alpha Bio; data file from the FLAb repository.

Target: peptide PDVDLGDISGINAS, taken from heptad repeat 2 (HR2) of SARS-CoV-2 spike.

Parent scFv Ab-14: VH joined to VL by a 15-residue (Gly4Ser)3 linker. Changes lie in the heavy chain CDRs alone.
VH: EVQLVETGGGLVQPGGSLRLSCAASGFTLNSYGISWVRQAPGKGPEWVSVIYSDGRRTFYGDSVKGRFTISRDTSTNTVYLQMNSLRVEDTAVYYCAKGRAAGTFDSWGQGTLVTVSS
VL: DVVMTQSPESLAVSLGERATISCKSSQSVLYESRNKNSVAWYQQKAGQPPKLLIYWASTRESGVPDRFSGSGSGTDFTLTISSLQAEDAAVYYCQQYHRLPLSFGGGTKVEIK

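This is the validation round: designs drawn from the data on random variants, tested in the same kind of assay. Several design methods are mixed in this list. In AlphaSeq, yeast of one mating type display the scFv and yeast of the other type display the target. The frequency of each diploid, read from paired DNA barcodes, reflects how well the two displayed proteins bind. Scores were corrected for input abundance and mapped to Kd with protein pairs of known affinity run in the same pool. Each pool was mated in six replicate cultures.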

The parent's heavy chain CDRs are GFTLNSYGIS, VIYSDGRRTFYGDSVK, GRAAGTFDS; each variant's own CDRs replace them letter for letter. This list holds designs with more than six substitutions. Values are log10 of the apparent Kd in nM; lower means stronger binding. Where no diploid with the target was found in that replicate, the entry reads "ND": below detection, most likely a poor binder, though not proof of it. A sequence measured in both rounds can read differently, since the two assays cover different ranges.

For GFDLDEYGIS / VIYADGQRTAYADSVK / GNQAGTFDT, the assay gave 1.05, 0.41, 0.55, 0.53, 0.76, 0.69. For GFNLNEVGIS / VIYADGLRSAYVDSVK / GGVVAVDFV, the assay gave ND, ND, ND, ND, ND, ND. Variant GFDLNEYGIS / VIYADGKRTAYADSVK / GENAGTFDV gave -0.35, -0.53, -0.53, -0.68, -0.51, 0.07. For GFDINEYGIS / VIYADGVRTFYADSVK / GNQGGTFDL, the assay gave 0.81, 0.72, 0.81, 0.77, 0.47, 0.91. With GFDINEYGVS / VIYADGMRTAYTDSVK / GKGAWIALV the result was ND, ND, ND, ND, ND, ND. For GFDLNEYGIS / VIYADGVRTAYADSVK / GENAGTFDV, the assay gave 0.06, 0.42, 0.32, 0.07, -0.17, -0.08. Variant GFDLDEYGIS / VIYADGMRTAYADSVK / GNTAGTFDV gave -1.04, -0.50, -1.31, -1.31, -0.75, -0.20. With GFDLNEYGIS / VIYADGQRTAYADSVK / GKAAGTFDV the result was -0.70, -0.88, -0.90, -1.05, -1.31, -0.61. Variant GFDLNEYGIS / VIYADGMRTAYLDSVK / GNVAGTFDV gave -0.49, -0.79, -0.87, -0.79, -0.69, -0.93.

Variant GFDLNEYGIS / VIYADGSRTAYVDDVK / GNVAGTFDV gave -0.25, -0.56, -1.00, -1.14, -0.89, -0.41. Variant GFDLNEYGIS / VIYADGVRTAYANSVK / GNVAGTFDI showed -0.41, -0.48, -0.63, -0.72, -0.62, -0.55. With GFHLDEYGIS / VIYADGKRVVYTNDVK / GELEFGFVI the result was ND, ND, ND, ND, ND, ND. For GFDLNEYGIS / VIYADGQRTAYVDSVK / GNVAGTFDV, the assay gave -0.78, -0.65, -0.63, -0.69, -0.90, -0.57. With GFDLNEYGIS / VIYADGMRSAYADSVK / GENAGTFDI the result was -0.24, -0.22, 0.03, -0.07, -0.56, -0.39. For GFDLNEYGIS / VIYADGVRTAYTDSVK / GNVAGTFDI, the assay gave -0.29, -0.57, -0.64, -0.83, -0.65, -0.64. With GFDLEEFGVS / VIYADGKRAAYTDSVK / GHEGAHFDV the result was ND, ND, ND, ND, ND, ND. For GKKLDEYGIS / VIYADGKRNFYSNSVK / GQLATGLFV, the assay gave ND, ND, ND, ND, ND, ND. With GFDLDEYGIS / VIYADGRRTFYADSVK / GETAGTFDS the result was -0.24, -0.32, -0.26, -0.45, 0.03, -0.23.

With GFDLNEYGIS / VIYADGKRTYYADSVK / GNTAGTFDV the result was -0.02, -0.64, 0.10, -0.45, -0.81, -0.53. With GFDLNEYGIS / VIYADGMRTAYSDNVK / GNVAGTFDV the result was 0.15, 0.02, -0.01, -0.17, 0.10, 0.16. With GFDLDEYGIS / VIYADGMRTAYQQKVK / GQETDTNVT the result was ND, ND, ND, ND, ND, ND. With GFDLDEYGIS / VIYADGQRTFYADSVK / GENAGTFDV the result was -0.06, -0.24, -0.32, -0.16, 0.05, -0.26. For GFDLNEYGIS / VIYADGQRTAYADSVK / GNVAGTFDV, the assay gave -0.01, -0.30, -0.90, -0.38, -0.17, -0.53. For GFDLNEYGIS / VIYADGHRSKYQNSVK / GGQADFALL, the assay gave ND, ND, ND, ND, ND, ND. Variant GRNLDEYGIS / VIYADGQRTSYIDNVK / GGDSVDFDM showed ND, ND, ND, ND, ND, ND. For GFAIDEFGIS / VIYADGKRTSYSDTVK / GQLGNAFDL, the assay gave ND, ND, ND, ND, ND, ND. Variant GFDLNEYGIS / VIYADGKRTAYADSVK / GSNAGTFDT showed -0.35, -0.42, -0.66, -0.52, -0.50, -0.20.

With GEDLSEYGIS / VIYADGRKTAYSNAFK / GAVGGIFVN the result was ND, ND, ND, ND, ND, ND. Variant GKDLEEYGIS / VIYADGHRAAYADSVK / GINMDIMTV gave ND, 2.57, ND, ND, ND, ND. With GFSLDEYGIS / VIYADGRRTFYVDDVK / GNVAGTFDS the result was -0.41, -0.59, -0.67, -0.51, -0.35, -0.51. For GFNLNEYGIS / VIYADGRRTAYADSVK / GEHAGSFDI, the assay gave 0.13, -0.28, 0.00, -0.25, -0.44, 0.10. Variant GFDLNEYGIS / VIYADGVRSAYADSVK / GNVAGTFDL showed -0.17, -0.29, -0.28, -0.54, -0.25, 0.04. Variant GFALNEYGIS / VIYADGFRRAYQDKVK / GVLVGNFSV gave ND, ND, ND, ND, ND, ND. For GFDLNDYGIS / VIYADGMRTFYADSVK / GEYAGTFDI, the assay gave 0.65, 0.54, 0.12, -0.16, 0.93, 0.22. Variant GFNLNEYGIS / VIYADGRRTFYADSVK / GETAGTFDI showed -0.49, -0.39, -0.32, -0.46, -0.68, -0.47. For GFDLDEYGIS / VIYADGSRTAYADSVK / GNQAGTFDV, the assay gave -0.61, -0.54, -0.68, -0.49, -0.78, -0.69.

Variant GFDLEEYGIS / VIYADGKRVAYQDAVK / GKTGGMFMV gave ND, ND, ND, ND, ND, ND. Variant GFDLEDYGIS / VIYADGQRTAYADSVK / GNVAGTFDV gave -0.31, -0.88, -1.01, -1.23, -1.02, -0.80. For GFDLDEYGIS / VIYADGKRTAYVDSVK / GNEAGTFDV, the assay gave -0.42, -0.73, -0.66, -0.66, -0.62, -0.57. With GFDLNEYGIS / VIYADGMRTFYTDSVK / GEVAGTFDK the result was -0.30, -0.22, -0.61, -0.49, -0.28, -0.40. Variant GFDLDEYGIS / VIYADGQRTAYADSVK / GQNAGTFDL showed -1.55, -1.29, -1.66, -1.29, -0.39, -1.16. For GFDLQEYGIS / VIYADGKRSMYSNDVK / GEVGLGELI, the assay gave ND, ND, 1.25, ND, ND, ND. For GFNLDEYGIS / VIYADGVRTAYASKVK / GKVWWFLLM, the assay gave ND, ND, ND, ND, ND, ND. With GFDLNEYGIS / VIYADGMRTAYADSVK / GNLAGTFDL the result was -0.38, -0.54, -0.54, -0.53, -0.31, -0.27.

A selection of 6 entries from above:

CDR-H1	CDR-H2	CDR-H3	log10 Kd, replicates
GFDLNEYGIS	VIYADGKRTAYADSVK	GSNAGTFDT	-0.35, -0.42, -0.66, -0.52, -0.50, -0.20
GFDLNEYGIS	VIYADGSRTAYVDDVK	GNVAGTFDV	-0.25, -0.56, -1.00, -1.14, -0.89, -0.41
GFDLQEYGIS	VIYADGKRSMYSNDVK	GEVGLGELI	ND, ND, 1.25, ND, ND, ND
GFDLNEYGIS	VIYADGVRSAYADSVK	GNVAGTFDL	-0.17, -0.29, -0.28, -0.54, -0.25, 0.04
GFDLNEYGIS	VIYADGMRTFYTDSVK	GEVAGTFDK	-0.30, -0.22, -0.61, -0.49, -0.28, -0.40
GFDLNEYGIS	VIYADGMRTAYADSVK	GNLAGTFDL	-0.38, -0.54, -0.54, -0.53, -0.31, -0.27

In the paper, a design with two or fewer of six values counts as a poor binder. Of ten entries with the parent sequence, four were seen in most replicates (averages 0.34 to 2.37), three in one and three in none, so single entries are noisy. Empty control strains, which show no peptide, gave a signal in 1% of pairings with all heavy chain designs; the median was 2.08 and 95% of these signals were weaker than 0.84. No background was subtracted.